Assay results: ChEMBL document CHEMBL1155442, “Click chemistry approach to new N-substituted aminocyclitols as potential pharmacological chaperones for Gaucher disease” (J Med Chem, 2010)

System: Glucosylceramide synthase (Homo sapiens)
Experiment: Inhibition of glucosylceramide synthase in human A549 cells at 250 uM after 35 mins by fluorescence-coupled HPLC analysis

- inhibition: 30%
Structure (SMILES): CCCCCCCCCn1cc(CCN[C@H]2[C@H](O)[C@@H](O)[C@H](O)[C@@H](O)[C@@H]2O)nn1
